Measured values published in BindingDB's records for patent US10172858 (Intellikine, 2019).

Experiments:
[1] = target: Serine/threonine-protein kinase mTOR (Homo sapiens, UniProt P42345)
[2] = target: Phosphatidylinositol 4,5-bisphosphate 3-kinase catalytic subunit gamma isoform (Homo sapiens, UniProt P48736)
[3] = target: T1, Phosphatidylinositol 4,5-bisphosphate 3-kinase catalytic subunit delta isoform (Homo sapiens, UniProt O00329)
T1 sequence (O00329 whole entry): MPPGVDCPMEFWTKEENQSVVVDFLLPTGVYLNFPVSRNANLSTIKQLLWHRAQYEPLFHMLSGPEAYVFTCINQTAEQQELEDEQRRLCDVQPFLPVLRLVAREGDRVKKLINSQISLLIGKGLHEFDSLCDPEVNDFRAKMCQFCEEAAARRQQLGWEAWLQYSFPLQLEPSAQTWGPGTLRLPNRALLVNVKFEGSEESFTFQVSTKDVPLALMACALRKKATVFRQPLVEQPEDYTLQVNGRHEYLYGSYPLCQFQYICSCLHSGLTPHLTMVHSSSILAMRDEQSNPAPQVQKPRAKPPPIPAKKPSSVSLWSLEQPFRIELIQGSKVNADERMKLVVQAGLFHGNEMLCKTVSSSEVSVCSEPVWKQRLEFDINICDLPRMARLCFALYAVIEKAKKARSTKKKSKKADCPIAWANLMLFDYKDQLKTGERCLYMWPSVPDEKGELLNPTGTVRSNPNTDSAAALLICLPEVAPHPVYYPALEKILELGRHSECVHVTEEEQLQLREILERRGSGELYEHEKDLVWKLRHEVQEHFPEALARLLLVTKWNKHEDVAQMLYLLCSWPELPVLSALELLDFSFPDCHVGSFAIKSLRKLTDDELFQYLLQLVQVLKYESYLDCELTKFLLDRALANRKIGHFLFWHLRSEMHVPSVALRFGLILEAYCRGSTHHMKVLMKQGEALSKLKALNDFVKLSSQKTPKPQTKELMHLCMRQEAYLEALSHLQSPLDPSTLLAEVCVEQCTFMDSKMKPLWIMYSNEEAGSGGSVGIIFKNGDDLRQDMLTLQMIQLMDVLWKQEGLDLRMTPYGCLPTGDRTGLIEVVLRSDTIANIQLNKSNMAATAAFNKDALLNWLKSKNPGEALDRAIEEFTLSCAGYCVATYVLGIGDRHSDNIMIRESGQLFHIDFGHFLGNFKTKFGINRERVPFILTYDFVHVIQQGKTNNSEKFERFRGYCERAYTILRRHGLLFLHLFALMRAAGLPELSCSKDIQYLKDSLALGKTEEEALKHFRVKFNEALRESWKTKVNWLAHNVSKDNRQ

Compound	IC50 [1]	IC50 [2]	IC50 [3]
CC(=O)Nc1nc2ccc(-c3nn(C(C)C)c4ncnc(N)c34)cc2o1 [US10172858, Table 1.3]	< 10 µM	< 10 µM	< 10 µM
Nc1nc2cc(-c3nn(C4CCC(N5CCOCC5)CC4)c4ncnc(N)c34)ccc2o1 (stereo not given) [US10172858, Table 1.6]	–	< 10 µM	–
CC(C)n1nc(-c2ccc3onc(NC4CC4)c3c2)c2c(N)ncnc21 [US10172858, Table 1.16]	–	< 10 µM	–
